This is an account of results in paper PMC5372361 (Scientific Reports, 2017).

By UniProt entry, the sequences of proteins in these tests, tags left out. Residues count along the entry.
UniProt Q00960, 27-1482: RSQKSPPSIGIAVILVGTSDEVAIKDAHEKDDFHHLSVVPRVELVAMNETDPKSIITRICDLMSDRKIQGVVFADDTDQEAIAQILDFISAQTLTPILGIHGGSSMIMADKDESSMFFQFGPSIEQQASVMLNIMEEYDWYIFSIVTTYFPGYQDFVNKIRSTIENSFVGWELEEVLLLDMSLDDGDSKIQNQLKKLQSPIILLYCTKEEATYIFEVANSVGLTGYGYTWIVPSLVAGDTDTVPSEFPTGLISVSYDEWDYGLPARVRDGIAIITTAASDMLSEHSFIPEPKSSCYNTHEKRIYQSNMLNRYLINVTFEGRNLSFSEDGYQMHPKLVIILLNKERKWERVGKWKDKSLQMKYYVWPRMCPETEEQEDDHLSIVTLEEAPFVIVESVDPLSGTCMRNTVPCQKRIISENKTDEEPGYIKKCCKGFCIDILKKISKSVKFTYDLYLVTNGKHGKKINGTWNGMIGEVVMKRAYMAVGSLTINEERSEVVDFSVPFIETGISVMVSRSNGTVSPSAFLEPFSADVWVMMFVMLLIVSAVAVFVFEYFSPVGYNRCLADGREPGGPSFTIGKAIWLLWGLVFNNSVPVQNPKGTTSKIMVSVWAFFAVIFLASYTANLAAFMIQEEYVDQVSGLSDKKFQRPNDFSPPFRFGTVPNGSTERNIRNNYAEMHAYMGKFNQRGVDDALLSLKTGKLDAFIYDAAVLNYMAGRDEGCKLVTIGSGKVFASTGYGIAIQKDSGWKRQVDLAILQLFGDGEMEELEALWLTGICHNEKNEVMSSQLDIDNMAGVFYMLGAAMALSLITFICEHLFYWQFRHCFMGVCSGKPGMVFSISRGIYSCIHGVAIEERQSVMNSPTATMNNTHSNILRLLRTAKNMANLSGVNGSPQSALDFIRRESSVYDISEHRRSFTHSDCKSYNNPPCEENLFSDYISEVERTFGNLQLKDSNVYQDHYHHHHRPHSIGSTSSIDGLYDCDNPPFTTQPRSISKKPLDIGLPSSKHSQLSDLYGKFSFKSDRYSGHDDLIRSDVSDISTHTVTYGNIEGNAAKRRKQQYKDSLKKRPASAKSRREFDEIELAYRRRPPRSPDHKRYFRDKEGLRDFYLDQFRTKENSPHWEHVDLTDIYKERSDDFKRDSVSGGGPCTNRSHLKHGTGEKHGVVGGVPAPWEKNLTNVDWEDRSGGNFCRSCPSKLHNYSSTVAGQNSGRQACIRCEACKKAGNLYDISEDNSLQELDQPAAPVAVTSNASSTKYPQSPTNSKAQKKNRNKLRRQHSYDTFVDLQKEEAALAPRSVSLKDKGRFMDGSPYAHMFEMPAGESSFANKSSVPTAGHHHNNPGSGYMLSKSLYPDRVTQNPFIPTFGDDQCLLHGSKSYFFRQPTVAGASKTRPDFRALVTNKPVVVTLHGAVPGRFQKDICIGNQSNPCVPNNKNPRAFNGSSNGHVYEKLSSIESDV

Test [1] has as its target T1, MK-801 binding (intrachannel) site of NMDA receptor (Rattus norvegicus, UniProt P35439).
T1 construct: we used a membrane preparation of rat cerebral hippocampus; from tissue; host or cells: rat hippocampal membranes
Briefly: Radioligand binding, competition with [3H]MK-801.

Test [2] concerns the target T2, ifenprodil binding site of NMDA receptors containing NR2B subunits (Rattus norvegicus, UniProt P35439+Q00960).
T2 construct: we used a membrane preparation of rat cerebral hippocampus; from tissue; host or cells: rat hippocampal membranes
Briefly: Radioligand binding, competition with [3H]ifenprodil.

Each structure is given as a SMILES string.

For the compound `CC12CC3CC(C)(C1)CC(N)(C3)C2.Cl` [Memantine, 1-amino-3,5-dimethyladamantane hydrochloride], the IC50 in test [1] was 1360 ± 86 nM; in test [2], greater than 100000 nM.
